The source of these data is patent US20140336126A1.

The target in experiment [1] is GFP-Rab8 Q67L (UniProt P61006). Briefly: cell-based or functional assay.
For experiment [2], the target named is GS-TAP-tagged Optn (human) (UniProt Q96CV9). Briefly: TAP of GS-tagged Optn from HEK-293 cells, LC-MSMS.

Substance “Optineurin (Optn), wild type (from UniProt Q96CV9 1-577)” gave a colocalization in tight perinuclear spots (immunofluorescence) in experiment [1] of 70%. Take Optn S177A (from UniProt Q96CV9 1-577): the colocalization in tight perinuclear spots (immunofluorescence) in experiment [1] worked out at 70%.

Consider “ACTIN, ALPHA SKELETAL MUSCLE. (from UniProt P68133 3-377)”, for which, in experiment [2], the sequence coverage is 0.27 and the unique peptide counts was determined as 10. For CALMODULIN. (from UniProt P0DP25 2-149), in experiment [2], the sequence coverage was determined as 0.19 and the unique peptide counts came out at 3.
